From ChEMBL document CHEMBL2163249, “Exploration of natural compounds as sources of new bifunctional scaffolds targeting cholinesterases and beta amyloid aggregation: the case of chelerythrine” (Bioorg Med Chem, 2012)

By UniProt entry, the sequences of proteins in these tests, tags left out. Where a name states a change or a piece, a line headed by the entry shows the natural chain unless it says otherwise.
UniProt P22303: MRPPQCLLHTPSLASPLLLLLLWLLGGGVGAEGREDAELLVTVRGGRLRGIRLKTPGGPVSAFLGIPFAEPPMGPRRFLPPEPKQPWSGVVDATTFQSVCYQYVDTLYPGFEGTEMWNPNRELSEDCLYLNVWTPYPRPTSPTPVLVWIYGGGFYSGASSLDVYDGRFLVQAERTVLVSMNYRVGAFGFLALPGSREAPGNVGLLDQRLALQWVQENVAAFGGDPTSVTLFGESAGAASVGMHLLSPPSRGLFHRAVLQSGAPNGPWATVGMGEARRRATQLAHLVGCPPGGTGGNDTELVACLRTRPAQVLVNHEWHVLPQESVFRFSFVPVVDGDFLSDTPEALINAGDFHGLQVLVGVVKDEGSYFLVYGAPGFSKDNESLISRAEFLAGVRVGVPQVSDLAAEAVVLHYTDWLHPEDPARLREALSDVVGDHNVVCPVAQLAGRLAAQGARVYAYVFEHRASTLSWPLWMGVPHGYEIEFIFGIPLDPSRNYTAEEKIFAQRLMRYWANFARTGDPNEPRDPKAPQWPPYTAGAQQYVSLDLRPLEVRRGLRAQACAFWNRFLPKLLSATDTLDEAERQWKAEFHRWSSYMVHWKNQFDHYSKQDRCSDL

Molecular target: Acetylcholinesterase (Homo sapiens, UniProt P22303)

SMILES: COc1ccc2cc3[n+](cc2c1OC)CCc1cc2c(cc1-3)OCO2 [BERBERINE CHLORIDE]
- IC50: 0.61 µM
